Membrane permeability of cyclic peptides

Source: CycPeptMPDB (Li et al. 2023), which took these values from Furukawa et al. 2016, doi:10.1021/acs.jmedchem.6b01246.

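Lipid, pH, incubation time, direction and concentration are not recorded in the data file. Other peptides of the study may be missing here. Peptides that the database sets to -10, its floor, are left out.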

PAMPA is the parallel artificial membrane permeability assay, which has no cells and reads passive diffusion. P is given in units of 10^-6 cm/s (from log10 values with two decimals); larger means faster passage.

Listed for CCCC[C@@H]1NC(=O)[C@@H](CC(C)C)N(C)C(=O)CN(CC2CCCCC2)C(=O)[C@@H](C)NC(=O)CN(CCCOC(C)C)C(=O)[C@@H]2CCCN2C1=O: PAMPA 5 × 10^-6 cm/s.
Listed for CCCCCN1CC(=O)N(C)[C@H](CC(C)C)C(=O)N[C@@H](CCCC)C(=O)N2CCC[C@@H]2C(=O)N(Cc2ccc3c(c2)OCO3)CC(=O)N[C@H](C)C1=O: PAMPA 7.9 × 10^-6 cm/s.
Listed for CCCC[C@@H]1NC(=O)[C@@H](CC(C)C)NC(=O)CN(CC2CCOCC2)C(=O)[C@@H](Cc2ccccc2)NC(=O)CN(Cc2ccc3c(c2)OCO3)C(=O)[C@@H]2CCCN2C1=O: PAMPA 1 × 10^-6 cm/s.
Listed for CCCCCN1CC(=O)N(C)[C@H](CC(C)C)C(=O)N[C@@H](CCCC)C(=O)N2CCC[C@@H]2C(=O)N(Cc2ccc3c(c2)OCO3)CC(=O)N[C@@H](Cc2ccccc2)C1=O: PAMPA 0.0055 × 10^-6 cm/s.
Listed for CCCC[C@@H]1NC(=O)[C@@H](CC(C)C)N(C)C(=O)CN(CC2CCOCC2)C(=O)[C@H](C)NC(=O)CN(CC)C(=O)[C@@H]2CCCN2C1=O: PAMPA 0.12 × 10^-6 cm/s.
Listed for CCCCCN1CC(=O)N[C@H](CC(C)C)C(=O)N[C@@H](CCCC)C(=O)N2CCC[C@@H]2C(=O)N(CC)CC(=O)N[C@@H](Cc2ccccc2)C1=O: PAMPA 15 × 10^-6 cm/s.
Listed for CCCC[C@@H]1NC(=O)[C@H](CC(C)C)NC(=O)CN(CC2CCCCC2)C(=O)[C@@H](Cc2ccccc2)NC(=O)CN(CCCOC(C)C)C(=O)[C@H]2CCCN2C1=O: PAMPA 6 × 10^-6 cm/s.
Listed for CCCC[C@@H]1NC(=O)[C@@H](CC(C)C)N(C)C(=O)CN(CC2CCCCC2)C(=O)[C@H](C)NC(=O)CN(CC)C(=O)[C@@H]2CCCN2C1=O: PAMPA 9.8 × 10^-6 cm/s.
Listed for CCCC[C@@H]1NC(=O)[C@@H](CC(C)C)N(C)C(=O)CN(CC2CCCCC2)C(=O)[C@@H](C)NC(=O)CN(CCCOC(C)C)C(=O)[C@H]2CCCN2C1=O: PAMPA 8.1 × 10^-6 cm/s.
Listed for CCCC[C@@H]1NC(=O)[C@@H](CC(C)C)NC(=O)CN(CC2CCCCC2)C(=O)[C@H](Cc2ccccc2)NC(=O)CN(CCCOC(C)C)C(=O)[C@H]2CCCN2C1=O: PAMPA 11 × 10^-6 cm/s.
Listed for CCCCCN1CC(=O)N[C@@H](CC(C)C)C(=O)N[C@@H](CCCC)C(=O)N2CCC[C@H]2C(=O)N(CCCOC(C)C)CC(=O)N[C@@H](Cc2ccccc2)C1=O: PAMPA 12 × 10^-6 cm/s.
Listed for CCCC[C@@H]1NC(=O)[C@H](CC(C)C)NC(=O)CN(CC2CCOCC2)C(=O)[C@@H](Cc2ccccc2)NC(=O)CN(CCCOC(C)C)C(=O)[C@@H]2CCCN2C1=O: PAMPA 0.14 × 10^-6 cm/s.
Listed for CCCCCN1CC(=O)N[C@@H](CC(C)C)C(=O)N[C@@H](CCCC)C(=O)N2CCC[C@@H]2C(=O)N(CCCOC(C)C)CC(=O)N[C@@H](Cc2ccccc2)C1=O: PAMPA 11 × 10^-6 cm/s.
Listed for CCCC[C@@H]1NC(=O)[C@@H](CC(C)C)N(C)C(=O)CN(CC2CCOCC2)C(=O)[C@@H](Cc2ccccc2)NC(=O)CN(Cc2ccc3c(c2)OCO3)C(=O)[C@@H]2CCCN2C1=O: PAMPA 3.7 × 10^-6 cm/s.
Listed for CCCCCN1CC(=O)N[C@H](CC(C)C)C(=O)N[C@@H](CCCC)C(=O)N2CCC[C@H]2C(=O)N(Cc2ccc3c(c2)OCO3)CC(=O)N[C@H](C)C1=O: PAMPA 2.1 × 10^-6 cm/s.
Listed for CCCC[C@@H]1NC(=O)[C@@H](CC(C)C)N(C)C(=O)CN(CC2CCCCC2)C(=O)[C@@H](C)NC(=O)CN(Cc2ccc3c(c2)OCO3)C(=O)[C@H]2CCCN2C1=O: PAMPA 7.4 × 10^-6 cm/s.
Listed for CCCCCN1CC(=O)N[C@H](CC(C)C)C(=O)N[C@@H](CCCC)C(=O)N2CCC[C@H]2C(=O)N(Cc2ccc3c(c2)OCO3)CC(=O)N[C@H](Cc2ccccc2)C1=O: PAMPA 7.6 × 10^-6 cm/s.
Listed for CCCC[C@@H]1NC(=O)[C@@H](CC(C)C)NC(=O)CN(CC2CCCCC2)C(=O)[C@H](Cc2ccccc2)NC(=O)CN(Cc2ccc3c(c2)OCO3)C(=O)[C@H]2CCCN2C1=O: PAMPA 1.3 × 10^-6 cm/s.
Listed for CCCC[C@@H]1NC(=O)[C@H](CC(C)C)NC(=O)CN(CC2CCOCC2)C(=O)[C@@H](C)NC(=O)CN(Cc2ccc3c(c2)OCO3)C(=O)[C@H]2CCCN2C1=O: PAMPA 0.059 × 10^-6 cm/s.
Listed for CCCCCN1CC(=O)N[C@H](CC(C)C)C(=O)N[C@@H](CCCC)C(=O)N2CCC[C@@H]2C(=O)N(CC)CC(=O)N[C@@H](C)C1=O: PAMPA 1 × 10^-6 cm/s.
Listed for CCCC[C@@H]1NC(=O)[C@@H](CC(C)C)N(C)C(=O)CN(CC2CCOCC2)C(=O)[C@H](C)NC(=O)CN(Cc2ccc3c(c2)OCO3)C(=O)[C@@H]2CCCN2C1=O: PAMPA 2.9 × 10^-6 cm/s.
Listed for CCCC[C@@H]1NC(=O)[C@@H](CC(C)C)NC(=O)CN(CC2CCOCC2)C(=O)[C@@H](C)NC(=O)CN(CC)C(=O)[C@@H]2CCCN2C1=O: PAMPA 0.01 × 10^-6 cm/s.
Listed for CCCC[C@@H]1NC(=O)[C@H](CC(C)C)N(C)C(=O)CN(CC2CCCCC2)C(=O)[C@H](Cc2ccccc2)NC(=O)CN(CCCOC(C)C)C(=O)[C@H]2CCCN2C1=O: PAMPA 1.4 × 10^-6 cm/s.

Excerpt, the opening 2 entries:

SMILES	PAMPA (10^-6 cm/s)
CCCC[C@@H]1NC(=O)[C@@H](CC(C)C)N(C)C(=O)CN(CC2CCCCC2)C(=O)[C@@H](C)NC(=O)CN(CCCOC(C)C)C(=O)[C@@H]2CCCN2C1=O	5
CCCCCN1CC(=O)N(C)[C@H](CC(C)C)C(=O)N[C@@H](CCCC)C(=O)N2CCC[C@@H]2C(=O)N(Cc2ccc3c(c2)OCO3)CC(=O)N[C@H](C)C1=O	7.9